Experimental data: ChEMBL document CHEMBL1144455, “A small molecule-kinase interaction map for clinical kinase inhibitors” (Nat Biotechnol, 2005)

Protein sequences, listed by entry. Tags and fused reporters are not part of them.
UniProt O43353, whole entry: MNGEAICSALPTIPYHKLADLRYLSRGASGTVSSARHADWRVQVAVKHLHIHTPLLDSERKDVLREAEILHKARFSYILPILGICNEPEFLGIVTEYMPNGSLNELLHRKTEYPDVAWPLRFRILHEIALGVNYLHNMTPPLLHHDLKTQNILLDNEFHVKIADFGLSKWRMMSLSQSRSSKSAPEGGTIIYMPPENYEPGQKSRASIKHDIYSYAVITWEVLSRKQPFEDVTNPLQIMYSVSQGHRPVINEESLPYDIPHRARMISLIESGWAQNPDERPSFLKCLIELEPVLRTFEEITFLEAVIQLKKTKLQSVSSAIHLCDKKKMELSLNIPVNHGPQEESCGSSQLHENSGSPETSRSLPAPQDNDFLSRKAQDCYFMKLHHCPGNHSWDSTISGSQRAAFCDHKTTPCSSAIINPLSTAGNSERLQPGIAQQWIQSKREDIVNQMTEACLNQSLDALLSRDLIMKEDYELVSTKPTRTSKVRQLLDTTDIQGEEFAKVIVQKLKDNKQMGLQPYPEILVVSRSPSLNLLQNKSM

Experiments:
[1] = molecular target: T1, Serine/threonine-protein kinase 17A (Homo sapiens, UniProt Q9UEE5)
T1 sequence (Q9UEE5 whole entry): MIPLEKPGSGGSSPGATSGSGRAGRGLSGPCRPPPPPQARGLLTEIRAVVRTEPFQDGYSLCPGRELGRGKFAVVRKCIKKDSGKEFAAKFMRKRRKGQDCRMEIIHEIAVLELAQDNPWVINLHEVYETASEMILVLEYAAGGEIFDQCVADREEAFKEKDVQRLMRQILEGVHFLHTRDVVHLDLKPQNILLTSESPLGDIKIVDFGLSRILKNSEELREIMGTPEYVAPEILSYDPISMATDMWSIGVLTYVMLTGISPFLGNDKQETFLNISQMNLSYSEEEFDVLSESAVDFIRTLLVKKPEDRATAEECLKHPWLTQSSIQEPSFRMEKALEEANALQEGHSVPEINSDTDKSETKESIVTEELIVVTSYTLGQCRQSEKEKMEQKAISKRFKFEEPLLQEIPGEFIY

[2] = molecular target: Receptor-interacting serine/threonine-protein kinase 2 (Homo sapiens, UniProt O43353)

Compound	Kd [1] [nM]	Kd [2] [nM]
CCOc1cc2ncc(C#N)c(Nc3ccc(F)c(Cl)c3)c2cc1NC(=O)/C=C/CN(C)C [PELITINIB]	57	
Oc1ccc(-c2nc(-c3ccncc3)c(-c3ccc(F)cc3)[nH]2)cc1 [SB-202190]		350
